In publication PMC12217679 (Scientific Reports, 2025):

Tests used:
[1] = Body weight, food intake, liver weight, fecal weight in mice; format: in vivo, mouse (WT and IAP-KO); conditions: WT and IAP-KO mice, 600 mg/kg B.W./d oral, 14 d; 600 mg/kg/day
How it was run: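 Male C57BL6J wild-type and IAP global knockout (Akp3-/-) mice, 7 weeks old, about 22 g, individually housed at 22 ± 2 °C on a 12-h light/dark cycle with free access to food and water. Acclimated 6–8 d on a non-purified diet, then allotted by body weight to four groups. Fed a high-cholesterol diet for 14 d while given test compound orally at 600 mg/kg B.W./d once daily.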

[2] = test system: hepatic protein levels of NPC1L1 and CYP7A1; assay: Western blot of hepatic CYP7A1 and NPC1L1, WT mice; format: in vivo, mouse (WT); conditions: 600 mg/kg B.W./d oral, 14 d, vs WT, Control, n = 6
[3] = test system: hepatic protein levels of NPC1L1 and CYP7A1; assay: Western blot of hepatic CYP7A1 and NPC1L1, IAP-KO mice; format: in vivo, mouse (IAP-KO, Akp3^-/-); conditions: 600 mg/kg B.W./d oral, 14 d, vs IAP-KO, Control, n = 6
[4] = Expected toxicity of IIAEK supplement; format: in vivo; conditions: expected from Lacprodan BLG NOAEL

With `CC[C@H](C)[C@H](N)C(=O)N[C@H](C(=O)N[C@@H](C)C(=O)N[C@@H](CCC(=O)O)C(=O)N[C@@H](CCCCN)C(=O)O)[C@@H](C)CC` [IIAEK, Ile-Ile-Ala-Glu-Lys] the body weight [1] was “no negative effects; also recorded: No significant differences”, the food intake [1] was “no negative effects; also recorded: No significant differences” and the liver weight [1] was “no negative effects; also recorded: No significant differences”. For the same compound, the “liver CYP7A1 protein level” value [2] was “significantly increased”, the “liver NPC1L1 protein level” value [2] was “significantly decreased” and the “effect on hepatic protein levels (CYP7A1, NPC1L1)” value [3] was “absent”. The expected nontoxic dose [4] was “expected to be nontoxic at doses up to 1000 mg/kg B.W./day”.

Entries after “also recorded” stand apart in the source; their conditions may differ.
